How the values were obtained:
human TLR7 = target: T1, human TLR7 (Homo sapiens, UniProt Q9NYK1); assay: HEK-Blue hTLR7 SEAP reporter gene inhibition assay; format: cell-based; conditions: HEK-Blue hTLR7 IC50 (µM)
T1 sequence (Q9NYK1 27-1049): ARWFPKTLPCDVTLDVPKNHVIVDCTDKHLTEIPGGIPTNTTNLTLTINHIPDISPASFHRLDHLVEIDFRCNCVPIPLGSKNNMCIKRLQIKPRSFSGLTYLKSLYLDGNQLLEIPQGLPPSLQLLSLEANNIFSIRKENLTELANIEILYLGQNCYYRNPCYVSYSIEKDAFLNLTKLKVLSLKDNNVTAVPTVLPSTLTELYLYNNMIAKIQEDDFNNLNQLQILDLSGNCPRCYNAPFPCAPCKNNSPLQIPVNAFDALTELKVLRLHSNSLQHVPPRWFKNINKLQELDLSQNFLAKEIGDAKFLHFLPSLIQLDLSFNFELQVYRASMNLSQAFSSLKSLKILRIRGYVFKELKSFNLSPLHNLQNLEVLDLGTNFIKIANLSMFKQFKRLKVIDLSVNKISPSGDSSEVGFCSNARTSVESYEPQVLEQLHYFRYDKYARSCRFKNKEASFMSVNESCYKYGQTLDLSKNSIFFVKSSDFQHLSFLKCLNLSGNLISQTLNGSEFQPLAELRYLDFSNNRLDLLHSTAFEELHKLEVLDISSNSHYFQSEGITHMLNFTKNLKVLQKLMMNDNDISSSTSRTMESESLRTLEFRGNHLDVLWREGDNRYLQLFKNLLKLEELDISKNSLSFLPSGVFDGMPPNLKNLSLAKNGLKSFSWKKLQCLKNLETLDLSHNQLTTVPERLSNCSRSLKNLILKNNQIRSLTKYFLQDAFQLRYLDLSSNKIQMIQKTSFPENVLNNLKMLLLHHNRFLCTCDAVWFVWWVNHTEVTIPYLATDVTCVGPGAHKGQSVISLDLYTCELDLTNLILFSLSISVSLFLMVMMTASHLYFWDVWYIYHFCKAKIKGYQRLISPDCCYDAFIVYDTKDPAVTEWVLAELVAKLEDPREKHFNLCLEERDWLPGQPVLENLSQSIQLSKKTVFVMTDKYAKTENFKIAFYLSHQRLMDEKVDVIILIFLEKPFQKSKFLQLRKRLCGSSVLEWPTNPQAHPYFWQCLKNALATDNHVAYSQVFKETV
Protocol: (§1) HEK-Blue cells with stable expression of human TLR7 or TLR8 were used in the evaluation of inhibitory activity of compounds in the present invention against TLR7 or TLR8, by using its ability to induce the SEAP reporting gene under the control of the fusion of IFN-β minimum promoters into five NF-κB and ap-1 binding sites, as follows: hTLR7 HEK-Blue cells (Invivogen, 80, 000 cells per well) or hTLR8 HEK-Blue cells (60, 000 cells per well) were added to a 96-well cell culture plate. A solution of the testing compounds were added to each well, with the final concentration of tested compounds in the medium ranged from 0.001 to 36 µM and the culture was incubated for 15 minutes. M5049 was used as positive controls in the testing.
(§2) Then a TLR7 ligand (Gardiquimod, purchased from MedChemExpress, with final concentration of ligand in cell culture medium kept at 10 µM) or a TLR8 ligand (purchased from MedChemExpress with final concentration in cell culture media at 10 µM) and the culture was incubated for 20 hours. According to the manufacturer's instructions, a HEK-Blue reagent Quanti-blue (Invivogen) was used to detect the SEAP levels in cell cultures. The half […] concentration or IC50 was calculated by using GraphPad Prism. The IC50 values were defined as A and B (Against hTLR7 EC50(µM): A < 0.05 µM, B > 0.05 µM; against hTLR8 EC 50(µM): A < = 0.1 µM, B > 0.1 µM; -, as untested). […]

human TLR8 = target: T2, human TLR8 (Homo sapiens, UniProt Q9NR97); assay: HEK-Blue hTLR8 SEAP reporter gene inhibition assay; format: cell-based; conditions: HEK-Blue hTLR8 IC50 (µM)
T2 construct: expressed in transfected cells
T2 sequence (Q9NR97 27-1041): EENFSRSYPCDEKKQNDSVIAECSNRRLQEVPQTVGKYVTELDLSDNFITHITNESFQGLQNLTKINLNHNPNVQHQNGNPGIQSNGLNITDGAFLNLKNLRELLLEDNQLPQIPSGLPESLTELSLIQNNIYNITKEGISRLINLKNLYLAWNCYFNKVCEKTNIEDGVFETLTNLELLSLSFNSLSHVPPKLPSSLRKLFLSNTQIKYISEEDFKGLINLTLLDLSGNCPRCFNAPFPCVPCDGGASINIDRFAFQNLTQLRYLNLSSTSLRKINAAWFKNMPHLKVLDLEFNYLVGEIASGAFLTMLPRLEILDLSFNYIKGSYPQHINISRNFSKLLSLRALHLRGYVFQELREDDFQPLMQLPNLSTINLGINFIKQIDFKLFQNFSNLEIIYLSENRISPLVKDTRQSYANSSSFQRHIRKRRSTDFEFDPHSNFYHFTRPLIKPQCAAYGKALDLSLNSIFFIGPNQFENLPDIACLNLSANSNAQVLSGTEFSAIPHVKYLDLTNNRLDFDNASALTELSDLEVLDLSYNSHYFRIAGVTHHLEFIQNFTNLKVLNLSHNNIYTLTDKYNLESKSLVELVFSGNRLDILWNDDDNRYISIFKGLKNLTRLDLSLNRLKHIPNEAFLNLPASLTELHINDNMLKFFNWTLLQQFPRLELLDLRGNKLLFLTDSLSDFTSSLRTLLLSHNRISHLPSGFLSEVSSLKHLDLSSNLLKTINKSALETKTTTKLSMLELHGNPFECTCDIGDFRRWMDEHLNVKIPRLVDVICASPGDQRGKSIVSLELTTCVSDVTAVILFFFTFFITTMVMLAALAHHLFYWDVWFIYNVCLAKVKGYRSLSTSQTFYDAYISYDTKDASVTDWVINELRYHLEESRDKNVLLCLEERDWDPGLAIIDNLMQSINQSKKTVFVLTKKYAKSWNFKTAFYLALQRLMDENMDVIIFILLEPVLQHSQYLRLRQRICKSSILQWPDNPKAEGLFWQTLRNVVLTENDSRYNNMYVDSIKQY
Protocol: as §1, §2

Compound: C[C@@H]1CN(c2ccc(C#N)n3ncc(F)c23)Cc2c3c(nn21)CN(CC12CC(C(=O)N(C)C)(C1)C2)[C@@H](C)C3 [Example I-202, 3-(((4R,9S)-2-(7-cyano-3-fluoropyrazolo[1,5-a]pyridin-4-yl)-4,9-dimethyl-1,2,3,4,9,10-hexahydropyrido[3',4':3,4]pyrazolo[1,5-a]pyrazin-8(7H)-yl)methyl)-N,N-dimethyl bicyclo[1.1.1]pentane-1-carboxamide]
- IC50 (human TLR7): > 0.05 µM
- IC50 (human TLR8): < 0.1 µM

From EP4644396A1 (Visionpharma (Nantong) Co., Ltd, priority 2022, dated 2024)
